ChEMBL document CHEMBL1121558, “Studies on several 7-substituted N,N-dimethyltryptamines” (J Med Chem, 1980)

Target: Serotonin (5-HT) receptor
Experiment: Compound was evaluated for binding affinity towards 5-hydroxytryptamine receptor in isolated rat fundus preparation measured as pA2

In the case of `CN(C)CCc1c[nH]c2ccccc12` [N,N-DIMETHYLTRYPTAMINE], the pA2 is reported as 6.
